Assay results taken from US11186582B2, “Substituted [1,2,4]triazolo[1,5-a]pyrimidin-7-yl compounds as PDE2 inhibitors” (DART NEUROSCIENCE (CAYMAN) LTD., priority 2014, dated 2021).

Protein sequences, listed by entry. Tags and fused reporters are not part of them. Residues count along the entry.
UniProt O00408, 2-941: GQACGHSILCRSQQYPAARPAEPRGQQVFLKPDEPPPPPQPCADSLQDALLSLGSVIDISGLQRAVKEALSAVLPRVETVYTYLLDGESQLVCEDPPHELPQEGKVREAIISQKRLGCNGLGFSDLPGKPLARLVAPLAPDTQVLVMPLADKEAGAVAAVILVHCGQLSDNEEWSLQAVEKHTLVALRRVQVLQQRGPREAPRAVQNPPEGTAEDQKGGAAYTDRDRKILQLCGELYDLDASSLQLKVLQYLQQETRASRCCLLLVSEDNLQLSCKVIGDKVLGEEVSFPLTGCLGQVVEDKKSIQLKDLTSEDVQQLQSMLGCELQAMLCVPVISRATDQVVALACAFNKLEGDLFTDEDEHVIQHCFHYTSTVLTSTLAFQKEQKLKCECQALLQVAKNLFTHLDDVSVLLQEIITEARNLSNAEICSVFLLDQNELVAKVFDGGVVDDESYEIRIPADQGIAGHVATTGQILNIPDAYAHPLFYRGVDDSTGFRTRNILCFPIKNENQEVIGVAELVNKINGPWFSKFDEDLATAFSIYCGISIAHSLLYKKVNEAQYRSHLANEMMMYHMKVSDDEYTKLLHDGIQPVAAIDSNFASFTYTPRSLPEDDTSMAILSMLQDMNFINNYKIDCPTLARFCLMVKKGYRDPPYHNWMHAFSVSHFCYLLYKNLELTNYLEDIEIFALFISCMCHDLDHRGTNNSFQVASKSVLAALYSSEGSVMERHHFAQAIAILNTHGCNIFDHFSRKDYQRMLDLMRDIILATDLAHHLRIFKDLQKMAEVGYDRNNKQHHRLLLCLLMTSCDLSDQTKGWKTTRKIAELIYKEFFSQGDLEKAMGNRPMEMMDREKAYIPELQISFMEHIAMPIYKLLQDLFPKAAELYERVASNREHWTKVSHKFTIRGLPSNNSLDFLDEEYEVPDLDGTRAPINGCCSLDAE

target: FLAG-tagged PDE2A1 (amino acids 2-941) (Homo sapiens (Human), UniProt O00408); assay: IMAP TR-FRET PDE2A phosphodiesterase enzymatic assay; settings: not given

Compound | IC50 [nM]
Cc1cc(C2CCCN(C(=O)c3cccc(C)c3Cl)C2)n2ncnc2n1 (centres unmarked) [Example 488, 1-[(2-Chloro-3-methylphenyl)carbonyl]-3-{5-methyl-[1,2,4]triazolo[1,5-a]pyrimidin-7-yl}piperidine] | 1000 to 10000
Cc1cc(C2CCCN(Cc3cccc(-c4cccc(Cl)c4)c3)C2)n2ncnc2n1 (centres unmarked) [Example 29, 1-{[3-(3-Chlorophenyl)phenyl]methyl}-3-{5-methyl-[1,2,4]triazolo[1,5-a]pyrimidin-7-yl}piperidine] | 100 to 1000
Cc1cc(C2CCCN(Cc3ccc(OC(F)F)cc3)C2)n2ncnc2n1 (centres unmarked) [Example 100, 1-{[4-(Difluoromethoxy)phenyl]methyl}-3-{5-methyl-[1,2,4]triazolo[1,5-a]pyrimidin-7-yl}piperidine] | 1000 to 10000
Cc1cc(C2CN(C(=O)c3cc4ccccc4o3)CCO2)n2ncnc2n1 (centres unmarked) [Example 539, 4-(1-Benzofuran-2-carbonyl)-2-{5-methyl-[1,2,4]triazolo[1,5-a]pyrimidin-7-yl}morpholine] | 100 to 1000
Cc1cc(C2CCCN(Cc3cc(-c4ccccc4Cl)ccc3F)C2)n2ncnc2n1 (centres unmarked) [Example 24, 1-{[5-(2-Chlorophenyl)-2-fluorophenyl]methyl}-3-{5-methyl-[1,2,4]triazolo[1,5-a]pyrimidin-7-yl}piperidine] | 1000 to 10000
Cc1cc(C2CCCN(Cc3cc4ccccc4s3)C2)n2ncnc2n1 (centres unmarked) [Example 57, 1-(1-Benzothiophen-2-ylmethyl)-3-{5-methyl-[1,2,4]triazolo[1,5-a]pyrimidin-7-yl}piperidine] | 100 to 1000
Cc1cc(C2CCCN(Cc3ccc(C(F)(F)F)cc3F)C2)n2ncnc2n1 (centres unmarked) [Example 92, 1-{[2-Fluoro-4-(trifluoromethyl)phenyl]methyl}-3-{5-methyl-[1,2,4]triazolo[1,5-a]pyrimidin-7-yl}piperidine] | 100 to 1000
Cc1cc(C2CCCN(Cc3ccc(Cl)cc3)C2)n2ncnc2n1 (centres unmarked) [Example 68, 1-[(4-Chlorophenyl)methyl]-3-{5-methyl-[1,2,4]triazolo[1,5-a]pyrimidin-7-yl}piperidine] | 100 to 1000
Cc1cc(C2CN(C(=O)c3ccc(C(F)(F)F)cc3)CC(F)(F)C2)n2ncnc2n1 (centres unmarked) [Example 240, 3,3-Difluoro-5-{5-methyl-[1,2,4]triazolo[1,5-a]pyrimidin-7-yl}-1-{[4-(trifluoromethyl)phenyl]carbonyl}piperidine] | 100 to 1000
Cc1cc(C2CN(C(=O)c3cc(F)cc(Br)c3)CCO2)n2ncnc2n1 (centres unmarked) [Example 256, 4-[(3-Bromo-5-fluorophenyl)carbonyl]-2-{5-methyl-[1,2,4]triazolo[1,5-a]pyrimidin-7-yl}morpholine] | 100 to 1000
Cc1cc(C2CCCN(Cc3c(F)cc(Br)cc3F)C2)n2ncnc2n1 (centres unmarked) [Example 144, 1-[(4-Bromo-2,6-difluorophenyl)methyl]-3-{5-methyl-[1,2,4]triazolo[1,5-a]pyrimidin-7-yl}piperidine] | 100 to 1000
Cc1cc(C2CN(C(=O)c3cccc(Br)c3)CCO2)n2ncnc2n1 (centres unmarked) [Example 226, 4-[(3-Bromophenyl)carbonyl]-2-{5-methyl-[1,2,4]triazolo[1,5-a]pyrimidin-7-yl}morpholine] | 100 to 1000
Cc1cc(C2CN(C(=O)c3cccc(S(F)(F)(F)(F)F)c3)CC(F)(F)C2)n2ncnc2n1 (centres unmarked) [Example 260, 3,3-Difluoro-5-{5-methyl-[1,2,4]triazolo[1,5-a]pyrimidin-7-yl}-1-{[3-(pentafluorosulfanyl)phenyl]carbonyl}piperidine] | 100 to 1000
COc1cc(C(=O)N2CCOC(c3cc(C)nc4ncnn34)C2)ccn1 (centres unmarked) [Example 550, 4-(2-Methoxypyridine-4-carbonyl)-2-{5-methyl-[1,2,4]triazolo[1,5-a]pyrimidin-7-yl}morpholine] | 1000 to 10000
Cc1cc(C2CCCN(Cc3ccc(N4CCCC4)cc3)C2)n2ncnc2n1 (centres unmarked) [Example 59, 3-{5-Methyl-[1,2,4]triazolo[1,5-a]pyrimidin-7-yl}-1-{[4-(pyrrolidin-1-yl)phenyl]methyl}piperidine] | > 10000
Cc1cc(C2CCCN(Cc3cn(C)c4ccccc34)C2)n2ncnc2n1 (centres unmarked) [Example 46, 1-Methyl-3-[(3-{5-methyl-[1,2,4]triazolo[1,5-a]pyrimidin-7-yl}piperidin-1-yl)methyl]-1H-indole] | > 10000
Cc1cc(C2CCCN(C(=O)c3cccc(C)c3C)C2)n2ncnc2n1 (centres unmarked) [Example 487, 1-[(2,3-Dimethylphenyl)carbonyl]-3-{5-methyl-[1,2,4]triazolo[1,5-a]pyrimidin-7-yl}piperidine] | 1000 to 10000
Cc1cc(C2CCCN(C(=O)c3ccc(C(F)F)cc3)C2)n2ncnc2n1 (centres unmarked) [Example 489, 1-{[4-(Difluoromethyl)phenyl]carbonyl}-3-{5-methyl-[1,2,4]triazolo[1,5-a]pyrimidin-7-yl}piperidine] | 100 to 1000
Cc1cc(C2CN(C(=O)c3ccc4cccnc4c3)CCO2)n2ncnc2n1 (centres unmarked) [Example 298, 7-[(2-{5-Methyl-[1,2,4]triazolo[1,5-a]pyrimidin-7-yl}morpholin-4-yl)carbonyl]quinoline] | 100 to 1000
Cc1cc(C2CN(C(=O)c3ccc(C(C)C)cc3)CCO2)n2ncnc2n1 (centres unmarked) [Example 553, 2-{5-Methyl-[1,2,4]triazolo[1,5-a]pyrimidin-7-yl}-4-[4-(propan-2-yl)benzoyl]morpholine] | 1000 to 10000
Cc1cc([C@@H]2CN(C(=O)c3cc(C(C)C)nn3C)CCO2)n2ncnc2n1 [Example 288, (2S)-4-[1-Methyl-3-(propan-2-yl)-1H-pyrazole-5-carbonyl]-2-{5-methyl-[1,2,4]triazolo[1,5-a]pyrimidin-7-yl}morpholine] | 1000 to 10000
Cc1cc(C2CCCN(Cc3ccc(F)c(C(F)(F)F)c3)C2)n2ncnc2n1 (centres unmarked) [Example 44, 1-{[4-Fluoro-3-(trifluoromethyl)phenyl]methyl}-3-{5-methyl-[1,2,4]triazolo[1,5-a]pyrimidin-7-yl}piperidine] | > 10000
Cc1cc(C2CCCN(C(=O)c3cccn3C)C2)n2ncnc2n1 (centres unmarked) [Example 409, 1-[(1-Methyl-1H-pyrrol-2-yl)carbonyl]-3-{5-methyl-[1,2,4]triazolo[1,5-a]pyrimidin-7-yl}piperidine] | 100 to 1000
Cc1cc(C2CN(C(=O)c3ccccc3)CC(F)(F)C2)n2ncnc2n1 (centres unmarked) [Example 243, 1-Benzoyl-3,3-difluoro-5-{5-methyl-[1,2,4]triazolo[1,5-a]pyrimidin-7-yl}piperidine] | 100 to 1000
Cc1cc(C2CCCN(C(=O)c3ncccc3C)C2)n2ncnc2n1 (centres unmarked) [Example 398, 3-Methyl-2-[(3-{5-methyl-[1,2,4]triazolo[1,5-a]pyrimidin-7-yl}piperidin-1-yl)carbonyl]pyridine] | > 10000
Cc1cc(C2CN(C(=O)c3cc(Cl)ccn3)CCO2)n2ncnc2n1 (centres unmarked) [Example 264, 4-[(4-Chloropyridin-2-yl)carbonyl]-2-{5-methyl-[1,2,4]triazolo[1,5-a]pyrimidin-7-yl}morpholine] | 1000 to 10000
COc1ccc(CN2CCCC(c3cc(C)nc4ncnn34)C2)cc1Cl (centres unmarked) [Example 86, 1-[(3-Chloro-4-methoxyphenyl)methyl]-3-{5-methyl-[1,2,4]triazolo[1,5-a]pyrimidin-7-yl}piperidine] | 1000 to 10000
Cc1cc(C2CN(C(=O)c3cccc(OC(F)(F)F)c3)CC(F)(F)C2)n2ncnc2n1 (centres unmarked) [Example 249, 3,3-Difluoro-5-{5-methyl-[1,2,4]triazolo[1,5-a]pyrimidin-7-yl}-1-{[3-(trifluoromethoxy)phenyl]carbonyl}piperidine] | 100 to 1000
Cc1cc(C2CN(C(=O)c3ccc(F)c(F)c3)CCO2)n2ncnc2n1 (centres unmarked) [Example 224, 4-[(3,4-Difluorophenyl)carbonyl]-2-{5-methyl-[1,2,4]triazolo[1,5-a]pyrimidin-7-yl}morpholine] | > 10000
Cc1cc(C2CCCN(Cc3ccc(F)c(C#N)c3)C2)n2ncnc2n1 (centres unmarked) [Example 176, 2-Fluoro-5-[(3-{5-methyl-[1,2,4]triazolo[1,5-a]pyrimidin-7-yl}piperidin-1-yl)methyl]benzonitrile] | 1000 to 10000

same assay, conditions: IMAP TR-FRET, 200 nM FAM-cAMP substrate, 11-point half-log dose-response

Compound | PDE2 (pIC50)
Cc1cc([C@@H]2CN(C(=O)c3cc(F)c(F)c(Cl)c3)CC(F)(F)C2)n2ncnc2n1 [Example 314, (5S)-1-(3-Chloro-4,5-difluorobenzoyl)-3,3-difluoro-5-{5-methyl-[1,2,4]triazolo[1,5-a]pyrimidin-7-yl}piperidine] | >7
Cc1cc(C2CN(C(=O)c3cc(Br)cc(C(F)(F)F)c3)CCO2)n2ncnc2n1 (centres unmarked) [Example 303, 4-[3-Bromo-5-(trifluoromethyl)benzol]-2-{5-methyl-[1,2,4]triazolo[1,5-a]pyrimidin-7-yl}morpholine] | >7
COc1cc(F)cc(C(=O)N2CC(c3cc(C)nc4ncnn34)CC(F)(F)C2)c1 (centres unmarked) [Example 523, 3,3-Difluoro-1-(3-fluoro-5-methoxybenzoyl)-5-{5-methyl-[1,2,4]triazolo[1,5-a]pyrimidin-7-yl}piperidine] | >7
Cc1cc([C@@H]2CN(C(=O)c3ccc4occc4c3)CCO2)n2ncnc2n1 [Example 372, (2S)-4-(1-Benzofuran-5-carbonyl)-2-{5-methyl-[1,2,4]triazolo[1,5-a]pyrimidin-7-yl}morpholine] | >7
COc1ccc(C(=O)N2CC(c3cc(C)nc4ncnn34)CC(F)(F)C2)cc1OC (centres unmarked) [Example 513, 1-(3,4-Dimethoxybenzoyl)-3,3-difluoro-5-{5-methyl-[1,2,4]triazolo[1,5-a]pyrimidin-7-yl}piperidine] | >7
COc1ccc2cc(CN3CCCC(c4cc(C)nc5ncnn45)C3)ccc2c1 (centres unmarked) [Example 120, 7-(1-((6-Methoxynaphthalen-2-yl)methyl)piperidin-3-yl)-5-methyl-[1,2,4]triazolo[1,5-a]pyrimidine] | >7
Cc1cc([C@@H]2CN(C(=O)c3cc(C)c(OC(C)C)c(C)c3)CCO2)n2ncnc2n1 [Example 289, (2S)-4-[3,5-Dimethyl-4-(propan-2-yloxy)benzoyl]-2-{5-methyl-[1,2,4]triazolo[1,5-a]pyrimidin-7-yl}morpholine] | >7
Cc1cc(C2CN(C(=O)c3ccc(C)c(Br)c3)CC(F)(F)C2)n2ncnc2n1 (centres unmarked) [Example 262, 1-[(3-Bromo-4-methylphenyl)carbonyl]-3,3-difluoro-5-{5-methyl-[1,2,4]triazolo[1,5-a]pyrimidin-7-yl}piperidine] | >7
